# Tests used:
# [1] = system: LoVo human colorectal cancer cell line; test: Alamar blue cytotoxicity assay, LoVo cells; settings: 48 hour treatment
# Method: (§1) . HT29, KB, LoVo, and PC3 cells were seeded on UV sterilized, black, clear-bottom 96-well plates at approximately ten thousand cells per well. The cells were allowed to adhere overnight at 37° C., 5% CO2 in a humidified environment in the following media: for HT-29 cells, RPMI 1640 with 25 mM HEPES and 2 mM L-glutamine, supplemented with 5% FBS, 2 mM L-glutamine, and Pen/Strep/Fungizone; for LoVo and PC-3 cells, F12K supplemented with 10% FBS, 2 mM L-glutamine and Pen/Strep/Fungizone; and for KB cells, a 1:1 mixture of HYQ SFM4HEK293 (Hyclone):RPMI 1640 with 25 mM HEPES and 2 mM L-glutamine, supplemented with 2.5% FBS, 2 mM L-glutamine and Pen/Strep/Fungizone. […] . In addition, each plate contained a row of positive controls, a row of media only controls, and a row of negative controls in which 100% DMSO was added. The positive control for cytotoxicity was chlorambucil. The positive controls for transport were lactic acid and thiophene glyoxylic acid. After the compounds and controls were added to the cells, the plates were returned to the cell culture incubators. After 48 hours, 10 μl Alamar blue was added to each well. Fluorescence of each well was read six hours after adding the Alamar blue. The percentage of live cells was calculated for each well by the following formula: {FluorWell−FluorNegControl)/FluorPosControl−FluorNegControl)}*100.
# [2] = system: KB human oral epidermoid carcinoma cell line; test: Alamar blue cytotoxicity assay, KB cells; settings: 48 hour treatment
# Method: as §1
# [3] = system: HT29 human colon carcinoma cell line; test: Alamar blue cytotoxicity assay, HT29 cells; settings: HT29, 48 hour treatment
# Method: as §1
smiles,measurement,setting,value
O=C(O)CON(CCCl)CCCl,GI50,[1],30 µM
same,GI50,[2],102 µM
same,GI50,[3],116 µM
